Reference: ChEMBL document CHEMBL6182944, “Substrate Specificity of the Organic Cation Transporters MATE1 and MATE2K and Functional Overlap with OCT1 and OCT2” (J Med Chem, 2025)

T1: Multidrug and toxin extrusion protein 1 (Homo sapiens, UniProt Q96FL8)
T1 sequence (Q96FL8 whole entry): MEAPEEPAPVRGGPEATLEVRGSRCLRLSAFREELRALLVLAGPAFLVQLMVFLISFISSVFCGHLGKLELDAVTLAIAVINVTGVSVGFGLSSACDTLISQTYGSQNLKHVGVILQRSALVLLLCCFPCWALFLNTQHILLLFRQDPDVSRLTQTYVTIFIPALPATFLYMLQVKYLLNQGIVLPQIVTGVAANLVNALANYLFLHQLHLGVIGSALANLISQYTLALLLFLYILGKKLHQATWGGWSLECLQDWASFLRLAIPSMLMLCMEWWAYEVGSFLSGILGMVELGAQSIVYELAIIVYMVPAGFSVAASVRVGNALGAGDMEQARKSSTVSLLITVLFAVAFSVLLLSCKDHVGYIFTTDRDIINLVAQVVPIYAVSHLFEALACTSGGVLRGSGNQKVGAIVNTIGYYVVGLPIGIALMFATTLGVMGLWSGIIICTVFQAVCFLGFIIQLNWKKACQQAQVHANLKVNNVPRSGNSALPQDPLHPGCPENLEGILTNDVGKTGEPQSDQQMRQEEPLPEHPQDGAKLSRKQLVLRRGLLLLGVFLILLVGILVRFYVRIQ

T2: Multidrug and toxin extrusion protein 2 (Homo sapiens, UniProt Q86VL8)
T2 sequence (Q86VL8 whole entry): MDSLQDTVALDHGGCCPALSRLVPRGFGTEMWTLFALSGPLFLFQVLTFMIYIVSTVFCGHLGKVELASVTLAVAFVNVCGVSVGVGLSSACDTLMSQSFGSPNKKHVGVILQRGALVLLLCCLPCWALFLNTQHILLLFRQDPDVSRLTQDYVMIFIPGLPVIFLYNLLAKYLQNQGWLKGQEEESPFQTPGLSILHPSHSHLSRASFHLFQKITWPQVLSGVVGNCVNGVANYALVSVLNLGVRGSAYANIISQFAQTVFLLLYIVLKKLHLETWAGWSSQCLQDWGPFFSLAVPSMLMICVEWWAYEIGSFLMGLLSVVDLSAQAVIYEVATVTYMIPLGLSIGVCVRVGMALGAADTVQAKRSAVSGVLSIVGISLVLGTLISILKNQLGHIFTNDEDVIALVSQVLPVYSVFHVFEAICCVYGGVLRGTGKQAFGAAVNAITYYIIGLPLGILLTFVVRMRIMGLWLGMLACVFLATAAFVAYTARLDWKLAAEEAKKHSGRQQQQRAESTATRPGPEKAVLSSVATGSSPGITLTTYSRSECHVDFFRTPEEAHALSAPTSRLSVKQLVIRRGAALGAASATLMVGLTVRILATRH


What was measured:
[1] = target: T1, Multidrug and toxin extrusion protein 1; experiment: Substrate activity at MATE1 (unknown origin) expressed in HEK293 cells assessed as intrinsic clearance by measuring ratio of Vmax (maximum transport velocity) over Km measured per mg of protein by HPLC-MS/MS analysis; format: cell-based
[2] = target: T2, Multidrug and toxin extrusion protein 2; experiment: Substrate activity at MATE2-K (unknown origin) expressed in HEK293 cells assessed as intrinsic clearance by measuring ratio of Vmax (maximum transport velocity) over Km measured per mg of protein by HPLC-MS/MS analysis; format: cell-based
[3] = substrate: CC(C)NCC(O)COc1ccc(CC(N)=O)cc1; experiment: not read

Molecule | CL [1] | CL [2] | Km [3] | Vmax [3]
C[N@+]1(CC2CC2)CC[C@]23c4c5ccc(O)c4O[C@H]2C(=O)CC[C@@]3(O)[C@H]1C5 [METHYLNALTREXONE] | 3.12 µL/min | 0.48 µL/min | – | –
Multidrug and toxin extrusion protein 2 (Homo sapiens) (protein) MDSLQDTVALDHGGCCPALSRLVPRGFGTEMWTLFALSGPLFLFQVLTFMIYIVSTVFCGHLGKVELASVTLAVAFVNVCGVSVGVGLSSACDTLMSQSFGSPNKKHVGVILQRGALVLLLCCLPCWALFLNTQHILLLFRQDPDVSRLTQDYVMIFIPGLPVIFLYNLLAKYLQNQGWLKGQEEESPFQTPGLSILHPSHSHLSRASFHLFQKITWPQVLSGVVGNCVNGVANYALVSVLNLGVRGSAYANIISQFAQTVFLLLYIVLKKLHLETWAGWSSQCLQDWGPFFSLAVPSMLMICVEWWAYEIGSFLMGLLSVVDLSAQAVIYEVATVTYMIPLGLSIGVCVRVGMALGAADTVQAKRSAVSGVLSIVGISLVLGTLISILKNQLGHIFTNDEDVIALVSQVLPVYSVFHVFEAICCVYGGVLRGTGKQAFGAAVNAITYYIIGLPLGILLTFVVRMRIMGLWLGMLACVFLATAAFVAYTARLDWKLAAEEAKKHSGRQQQQRAESTATRPGPEKAVLSSVATGSSPGITLTTYSRSECHVDFFRTPEEAHALSAPTSRLSVKQLVIRRGAALGAASATLMVGLTVRILATRH | – | – | 173 µM | 0.00179 µmol/min
